The test system of one assay is Klebsiella pneumoniae. The note with it: Concentration 20 uM; ASSAY_TEST Inhibition of Bacterial Growth; detection method Absorption (OD600); MEDIA CAMHB; plate type 384well; NBS; CORNING #3640; time 18 hr.
A further assay relates to Candida albicans. The note with it: 20 µM.
The subject of the next assay is Cryptococcus neoformans. The note with it: Concentration 20 uM; ASSAY_TEST Inhibition of Fungal Growth; detection method Resazurin; Absorption (OD600-OD570); plate type 384well; NBS; CORNING #3640.

For part of these data: Most of the strong results are listed elsewhere, so they are rarer here than in the full data. Potency and affinity values are given separately. This is a selection; strong and weak results do not stand in their true shares.

The results in this text go back to ChEMBL document CHEMBL4513141, “CO-ADD screening of NIH (USA) - Clinical Collection” (2021).

With `COc1ccc(C[C@H](C)NC[C@@H](O)c2ccc(O)c(NC=O)c2)cc1.O.O.O=C(O)/C=C/C(=O)O`, the Inhibition was 16.2% in the assay with Klebsiella pneumoniae, 3.55% in the assay on Candida albicans and -7.84% in the assay on Cryptococcus neoformans.
